Like-named read-outs stand apart in the source and are kept apart here. One block for each molecule: values may come before it.
Experiments:
HER2 = HER2 (Homo sapiens, UniProt P04626); experiment: HER2-BT474 whole cell kinase ELISA; type: cell-based
human EGF receptor = human EGF receptor (Homo sapiens, UniProt P00533); experiment: EGF-receptor whole cell kinase assay (EGFR-3T3); type: cell-based
A431 cells = experiment: A431 growth assay (sulphorhodamine B); conditions: read-out: Estimated IC50 Growth Assays A431 cells, Table V, 4 days, SRB
PDGFR-β = PDGFR-β (Homo sapiens, UniProt P09619); experiment: PDGFR-β cellular kinase assay (U1242 cells); conditions: read-out: Estimated IC50 Cellular Kinase Assays PDGFR-β, Table V
SKOV3 cells = experiment: SKOV3 soft agar colony growth assay; conditions: read-out: Estimated IC50 Growth Assays SKOV3 cells, Table V, colony growth 2 weeks
SKBR3 cells = experiment: SKBR3 growth assay (sulphorhodamine B)
[1] = read-out: Estimated IC50 Cellular Kinase Assays HER2 (BT474), Table V

Chains of the proteins cited; added tags and fusions are not shown. Residues count along the entry.
UniProt P04626, 23-1255 limits assumed: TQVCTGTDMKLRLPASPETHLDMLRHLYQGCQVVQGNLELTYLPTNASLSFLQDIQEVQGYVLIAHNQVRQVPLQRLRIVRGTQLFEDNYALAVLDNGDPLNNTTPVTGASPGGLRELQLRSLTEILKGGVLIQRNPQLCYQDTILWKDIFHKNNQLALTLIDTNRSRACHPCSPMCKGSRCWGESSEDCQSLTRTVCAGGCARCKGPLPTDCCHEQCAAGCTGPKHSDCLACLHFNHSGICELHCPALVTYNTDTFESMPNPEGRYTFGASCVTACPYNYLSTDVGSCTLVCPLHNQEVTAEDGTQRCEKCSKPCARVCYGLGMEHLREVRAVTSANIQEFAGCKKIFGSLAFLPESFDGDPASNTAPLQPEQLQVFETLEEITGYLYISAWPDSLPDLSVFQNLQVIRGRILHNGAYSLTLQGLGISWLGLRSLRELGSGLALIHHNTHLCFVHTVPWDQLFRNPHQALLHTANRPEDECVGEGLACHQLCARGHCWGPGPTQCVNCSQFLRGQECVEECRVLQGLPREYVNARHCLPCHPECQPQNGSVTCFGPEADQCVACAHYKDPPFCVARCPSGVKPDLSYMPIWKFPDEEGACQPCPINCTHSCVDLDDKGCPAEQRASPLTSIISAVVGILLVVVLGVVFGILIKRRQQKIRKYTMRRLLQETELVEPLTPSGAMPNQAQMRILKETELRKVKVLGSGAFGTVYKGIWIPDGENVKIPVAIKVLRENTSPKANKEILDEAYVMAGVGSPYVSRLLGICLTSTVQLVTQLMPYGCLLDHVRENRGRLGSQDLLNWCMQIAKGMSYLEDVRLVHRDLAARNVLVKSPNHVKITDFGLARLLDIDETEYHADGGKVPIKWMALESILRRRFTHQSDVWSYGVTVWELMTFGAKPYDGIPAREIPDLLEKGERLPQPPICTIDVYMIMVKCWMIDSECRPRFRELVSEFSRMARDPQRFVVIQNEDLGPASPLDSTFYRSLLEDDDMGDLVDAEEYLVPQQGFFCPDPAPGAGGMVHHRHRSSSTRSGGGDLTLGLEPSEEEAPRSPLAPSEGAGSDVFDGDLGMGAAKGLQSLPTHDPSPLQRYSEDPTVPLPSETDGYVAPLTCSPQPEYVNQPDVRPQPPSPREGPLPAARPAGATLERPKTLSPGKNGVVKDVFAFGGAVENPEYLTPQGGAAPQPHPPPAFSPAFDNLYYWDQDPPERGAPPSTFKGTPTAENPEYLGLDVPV
UniProt P00533, 25-1210 limits assumed: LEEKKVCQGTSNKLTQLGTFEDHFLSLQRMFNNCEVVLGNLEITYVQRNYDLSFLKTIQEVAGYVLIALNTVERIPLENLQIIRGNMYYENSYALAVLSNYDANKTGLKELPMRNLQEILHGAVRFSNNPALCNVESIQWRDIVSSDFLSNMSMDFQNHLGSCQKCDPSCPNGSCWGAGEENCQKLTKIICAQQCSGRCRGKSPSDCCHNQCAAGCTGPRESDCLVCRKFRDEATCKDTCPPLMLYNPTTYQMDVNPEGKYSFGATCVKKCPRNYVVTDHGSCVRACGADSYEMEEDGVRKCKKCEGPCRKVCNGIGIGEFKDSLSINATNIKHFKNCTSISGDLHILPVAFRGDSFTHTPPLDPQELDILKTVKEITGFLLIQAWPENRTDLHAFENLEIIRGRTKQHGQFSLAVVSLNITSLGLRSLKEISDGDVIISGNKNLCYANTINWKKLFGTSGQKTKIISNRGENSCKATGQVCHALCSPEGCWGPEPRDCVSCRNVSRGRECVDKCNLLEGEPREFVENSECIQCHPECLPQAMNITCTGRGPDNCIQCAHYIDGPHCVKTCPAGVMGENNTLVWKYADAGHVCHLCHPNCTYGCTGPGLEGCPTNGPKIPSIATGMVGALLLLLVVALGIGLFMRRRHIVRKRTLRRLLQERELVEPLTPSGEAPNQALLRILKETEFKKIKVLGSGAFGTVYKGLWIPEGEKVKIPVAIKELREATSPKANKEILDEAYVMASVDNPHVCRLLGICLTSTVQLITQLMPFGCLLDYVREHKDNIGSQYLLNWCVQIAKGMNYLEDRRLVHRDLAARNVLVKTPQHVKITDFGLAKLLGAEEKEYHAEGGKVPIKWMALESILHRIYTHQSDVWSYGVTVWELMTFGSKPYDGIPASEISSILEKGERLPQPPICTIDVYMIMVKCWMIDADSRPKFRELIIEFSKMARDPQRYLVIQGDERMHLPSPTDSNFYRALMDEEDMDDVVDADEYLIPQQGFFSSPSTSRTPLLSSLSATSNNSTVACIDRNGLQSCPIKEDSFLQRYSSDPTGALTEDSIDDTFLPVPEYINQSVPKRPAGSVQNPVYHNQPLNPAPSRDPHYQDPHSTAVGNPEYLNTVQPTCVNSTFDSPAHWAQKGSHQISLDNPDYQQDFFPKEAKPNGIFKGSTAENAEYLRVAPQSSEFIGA
UniProt P09619, 33-1106 limits assumed: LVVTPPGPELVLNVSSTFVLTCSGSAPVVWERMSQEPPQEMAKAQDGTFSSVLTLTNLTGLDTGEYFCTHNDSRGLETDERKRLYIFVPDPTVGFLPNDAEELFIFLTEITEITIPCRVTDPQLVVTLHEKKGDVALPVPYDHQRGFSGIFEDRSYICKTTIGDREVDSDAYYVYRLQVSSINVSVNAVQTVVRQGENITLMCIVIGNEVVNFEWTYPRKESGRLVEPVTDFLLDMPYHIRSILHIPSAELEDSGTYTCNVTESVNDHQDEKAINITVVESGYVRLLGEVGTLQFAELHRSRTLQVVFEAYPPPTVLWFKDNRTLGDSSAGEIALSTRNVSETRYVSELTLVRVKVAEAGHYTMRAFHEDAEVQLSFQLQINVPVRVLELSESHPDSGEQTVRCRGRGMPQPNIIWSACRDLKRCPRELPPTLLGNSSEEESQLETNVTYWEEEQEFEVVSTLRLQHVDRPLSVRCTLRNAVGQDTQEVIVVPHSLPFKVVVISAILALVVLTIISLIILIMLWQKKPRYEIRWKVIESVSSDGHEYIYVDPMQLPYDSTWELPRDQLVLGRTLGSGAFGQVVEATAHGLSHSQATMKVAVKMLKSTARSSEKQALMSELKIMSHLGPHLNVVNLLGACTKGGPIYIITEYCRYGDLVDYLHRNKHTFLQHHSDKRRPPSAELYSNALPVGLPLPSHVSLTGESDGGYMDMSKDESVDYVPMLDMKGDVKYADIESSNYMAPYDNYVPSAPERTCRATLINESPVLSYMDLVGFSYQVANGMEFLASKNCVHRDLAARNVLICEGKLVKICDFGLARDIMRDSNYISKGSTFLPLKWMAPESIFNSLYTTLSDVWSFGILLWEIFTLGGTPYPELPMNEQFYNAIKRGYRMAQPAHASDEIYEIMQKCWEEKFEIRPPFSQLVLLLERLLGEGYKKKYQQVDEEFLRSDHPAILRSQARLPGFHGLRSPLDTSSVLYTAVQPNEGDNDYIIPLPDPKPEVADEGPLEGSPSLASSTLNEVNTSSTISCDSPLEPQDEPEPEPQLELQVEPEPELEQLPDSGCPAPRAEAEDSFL

IC50 (HER2; read-out: Estimated IC50 Cellular Kinase Assays HER2 (BT474), Table V, tested form: free base): > 50 µM | IC50 (HER2; read-out: HER2, Table III, cellular kinase assay, class symbol, tested form: free base): > 50 µM | IC50 (human EGF receptor; read-out: EGFR, Table III, cellular kinase assay, class symbol, tested form: free base): < 50 µM
Compound: Cc1ccc2ncnc(Nc3cccc(C(F)(F)F)c3)c2c1

IC50 (HER2; read-out: Estimated IC50 Cellular Kinase Assays HER2 (BT474), Table V, tested form: free base (made from P12a with Na2CO3)): 6.82 µM | IC50 (HER2; read-out: HER2, Table III, cellular kinase assay, class symbol, tested form: free base (made from P12a with Na2CO3)): < 50 µM | IC50 (A431 cells; tested form: free base (made from P12a with Na2CO3)): 20 µM | IC50 (human EGF receptor; read-out: EGFR, Table III, cellular kinase assay, class symbol, tested form: free base (made from P12a with Na2CO3)): < 50 µM
Compound: Cc1ccc2ncnc(Nc3cccc(Cl)c3)c2c1 [Compound P12a]

IC50 (HER2; [1]): 20 µM | IC50 (HER2; read-out: HER2, Table II, cellular kinase assay, class symbol): < 50 µM | inhibition of HER2 activity (HER2; significantly inhibit = IC50 less than 50 μM): selectively inhibited | IC50 (PDGFR-β): > 100 µM | IC50 (SKOV3 cells): 85 µM | IC50 (human EGF receptor; read-out: EGFR, Table II, cellular kinase assay, class symbol): > 50 µM | IC50 (human EGF receptor; read-out: Estimated IC50 Cellular Kinase Assays EGFR (EGF-3T3), Table V): > 100 µM | IC50 (SKBR3 cells; read-out: Estimated IC50 Growth Assays SKBR3 cells, Table V, 4 days, SRB): 78 µM
Compound: CC(=O)c1c(-c2ccccc2)[n+]([O-])c2ccccc2[n+]1[O-]
inhibition of growth of cells characterized by over-activity of HER2 (SKBR3 cells; cells characterized by over-activity of HER2): inhibited growth

IC50 (A431 cells; tested form: free base): 10 µM
Compound: COc1cc2ncnc(Nc3cccc(Cl)c3)c2cc1OC

IC50 (HER2; [1]): 34 µM | IC50 (HER2; read-out: Estimated IC50 Cellular Kinase Assays HER2 (BT474), Table V, tested form: hydrochloride): 41 µM | IC50 (HER2; read-out: HER2, Table III, cellular kinase assay, class symbol): < 50 µM | IC50 (HER2; read-out: HER2, Table III, cellular kinase assay, class symbol, tested form: hydrochloride): < 50 µM | IC50 (A431 cells): 20 µM | IC50 (human EGF receptor; read-out: EGFR, Table III, cellular kinase assay, class symbol): < 50 µM | IC50 (human EGF receptor; read-out: EGFR, Table III, cellular kinase assay, class symbol, tested form: hydrochloride): < 50 µM
Compound: Clc1cccc(Nc2ncnc3ccccc23)c1
